US20070004791A1, “3,6-disubstituted azabicyclo {3.1.0} hexane derivatives useful as muscarnic receptor antagonists” (priority 2002, published 2007)

The chains behind the UniProt entries cited, without tags or fusion partners. Where a name states a change or a piece, a line headed by the entry shows the natural chain unless it says otherwise.
UniProt P10980: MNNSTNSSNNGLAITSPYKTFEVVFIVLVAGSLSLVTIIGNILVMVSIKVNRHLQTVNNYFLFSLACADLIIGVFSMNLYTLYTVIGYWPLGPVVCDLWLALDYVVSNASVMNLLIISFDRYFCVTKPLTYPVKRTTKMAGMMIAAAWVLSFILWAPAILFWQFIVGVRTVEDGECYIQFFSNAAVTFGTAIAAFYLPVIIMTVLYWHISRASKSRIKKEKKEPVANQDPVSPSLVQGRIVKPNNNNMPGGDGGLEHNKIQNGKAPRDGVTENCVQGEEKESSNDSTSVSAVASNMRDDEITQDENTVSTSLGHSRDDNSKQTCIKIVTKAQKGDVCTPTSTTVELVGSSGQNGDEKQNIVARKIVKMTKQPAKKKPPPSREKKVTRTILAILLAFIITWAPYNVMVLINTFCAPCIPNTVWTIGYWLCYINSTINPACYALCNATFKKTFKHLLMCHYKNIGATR
UniProt P08483: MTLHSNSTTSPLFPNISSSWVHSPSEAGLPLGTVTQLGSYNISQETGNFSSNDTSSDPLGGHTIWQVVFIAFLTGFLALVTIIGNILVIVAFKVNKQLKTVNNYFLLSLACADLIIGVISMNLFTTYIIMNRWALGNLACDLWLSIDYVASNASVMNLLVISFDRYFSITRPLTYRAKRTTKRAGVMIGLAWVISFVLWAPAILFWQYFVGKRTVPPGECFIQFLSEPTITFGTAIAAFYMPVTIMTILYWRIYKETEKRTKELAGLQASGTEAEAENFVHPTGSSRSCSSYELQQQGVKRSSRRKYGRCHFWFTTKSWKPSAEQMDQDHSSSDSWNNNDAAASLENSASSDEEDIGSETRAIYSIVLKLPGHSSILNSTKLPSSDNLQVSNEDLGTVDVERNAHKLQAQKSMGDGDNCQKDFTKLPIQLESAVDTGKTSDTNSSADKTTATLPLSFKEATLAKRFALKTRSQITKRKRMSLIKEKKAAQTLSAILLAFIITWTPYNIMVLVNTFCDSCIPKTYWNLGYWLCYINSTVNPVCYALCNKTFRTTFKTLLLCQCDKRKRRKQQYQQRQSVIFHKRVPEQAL

Legend:
M2 muscarinic receptor = M2 muscarinic receptor (Rattus norvegicus, UniProt P10980); experiment: Radioligand binding assay, [3H]-N-methylscopolamine, rat heart membranes; details: [3H]NMS
M3 muscarinic receptor = M3 muscarinic receptor (Rattus norvegicus, UniProt P08483); details: for Receptor Binding Assay M3 pKi: rat submandibular gland, [3H]NMS

Compound | Kb (isolated rat bladder) [nM] | Receptor Binding Assay M2 pKi (M2 muscarinic receptor) | Receptor Binding Assay M3 pKi (M3 muscarinic receptor) | Receptor Binding Assay Selectivity M2/M3 (M3 muscarinic receptor; ratio M2/M3 from binding)
O=C(OC[C@@H]1[C@H]2CN(Cc3ccccc3)C[C@@H]12)[C@](O)(c1ccccc1)C1CCCCC1 | 1.62 | – | – | –
(2S)-(−)-(1α,5α,6α)-N-[3-benzyl-3-azabicyclo[3.1.0]hexyl-6(aminomethyl)-yl]-2-hydroxy-2-cyclopentyl-2-phenylacetamide. L(+)-tartrate salt | – | 6.21 | 7.65 | –
(2R)-(+)-(1α,5α,6α)-N-[3-benzyl-3-azabicyclo[3.1.0]hexyl-6-(aminomethyl)-yl]-2-hydroxy-2-cyclopentyl-2-phenylacetamide. L(+)-tartrate salt | – | 7.35 | 8.46 | 13
